UUG fidelity: alters start codon recognition fidelity in yeast | S. cerevisiae UUG-firefly luciferase reporter, luminescence/redox ratio | activity score, % at 18.7 µM | hit rate 0.13% among 350,000 | AID 602363;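 active means replicate mean at a twofold rise or more, about +100% in these data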;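 further: firefly luciferase made from a UUG start codon reports start codon fidelity; reporter light over untreated wells divided by growth signal over untreated wells; some hits fall short of that in this replicate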
GSIS activator: GLuc luminescence reporter in INS-1E cells, primary screen for activators of glucose-dependent secretion of insulin; INS-1E GLuc reporter insulin secretion, 2-3 h; activation, % at 16.6 µM; 370,000 compounds, 0.61% hits;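 active = lowest replicate activation of at least 40%, so every replicate reaches that level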;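 also: 0% = median of neutral control wells and 100% = median of IBMX positive control wells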
ERp5 block: ERp5 (human) disulfide isomerase inhibition | inhibition, % at 9.99 µM | AID 651711 | Q15084 | 350,000 compounds, 0.05% hits | ERp5 insulin aggregation, absorbance 650 nm, 90 min;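 active = mean replicate inhibition above about 25%, with every replicate also reaching it, limit read from the data, passing the limit was not always enough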
NR1D1 modulator: modulates human Rev-erb alpha binding to DNA. Rev-erbα–FITC-DNA binding, fluorescence polarization, 90 min. activity, % at 10 µM. 370,000 compounds, 0.79% hits. AID 1259318;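 active = activity above about 14%, limit read from the data; passing the limit was not always enough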;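 also: 0% = DMSO wells with 35 nM protein and 100% = DMSO wells with 750 nM protein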
SMARCA2 act: increases SMARCA2 function in MMTV reporter cells; activation, % at 9.1 µM; MG213 cells, MMTV-luciferase reporter, dexamethasone, overnight; AID 652017; 370,000 compounds, 1% hits; in the data active = activation above about 7.8%;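 also: 0% = vehicle wells and 100% = reference activator wells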
PDI turbidity: inhibitors of human protein disulfide isomerase; PDI insulin aggregation turbidity, A650, 90 min; AID 588391; 350,000 compounds, 0.052% hits; inhibition, % at 10 µM;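 active = mean inhibition across replicates of 30% or more, whatever share of single replicates reach that level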
SMARCA2 act conf: confirmation of SMARCA2 (BRM) function activators; MG213 cells, MMTV-luciferase with dexamethasone, luminescence, overnight; MG213 cells expressing E1A, Rb sequestered; DMSO wells 0%, reference activator 100%; shares compounds with SMARCA2 act; activation, % at 9.1 µM; 3,500 compounds, 30% hits; AID 652260;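 active = activation above its plate's cutoff, the mean activation of tested wells plus 3 SD, cut at about 7.9% in these data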
GAL4-VP16 Luc: GAL4-VP16 reporter activation counter-screen; activation, % at 9.1 µM; 3,500 compounds, 41% hits; HEK293 GAL4-VP16 pG5luc reporter, luciferase luminescence; scaled: DMSO wells 0%, SAHA wells 100%; shares compounds with SMARCA2 act; AID 686939;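 active = activation above the solvent-only control well mean plus 3 SD, averaged across control plates, cut at about 5.2% in these data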
Active calls of the source: *; . = no result given. Rows were chosen to be rich in hits. Some 2.1% of all compounds tested hit in one or more screens of this group.

Keys – A = UUG fidelity; B = GSIS activator; C = ERp5 block; D = NR1D1 modulator; E = SMARCA2 act; F = PDI turbidity; G = SMARCA2 act conf; H = GAL4-VP16 Luc
COc1ccc(OCc2cccc(C(=O)Nc3ccc(CN4CCCCC4)cc3)c2)cc1
  A: .; B: 9; C: -6; D: 2; E: 9.9*; F: -4; G: 9.4*; H: 14*
C[C@@H]1CCCCO[C@H](CN(C)Cc2ccccc2)[C@H](C)CN([C@@H](C)CO)C(=O)c2cc(NS(=O)(=O)c3ccc(Cl)cc3)ccc2O1
  A: 22; B: -26; C: -5; D: .; E: .; F: .; G: .; H: .
S=c1nccc(-c2ccc(Cl)cc2)[nH]1
  A: -23; B: .; C: 5; D: 0; E: 8.1*; F: 0; G: -2; H: 3
O=C(CN1C(=O)CSc2ccccc21)NC1CCCC1
  A: -15; B: 4; C: 0; D: 1; E: 8.3*; F: -1; G: 0; H: 0
O=C(NC1CC1)c1cccc(NC(=O)C2CCCCC2)c1
  A: -14; B: 1; C: -2; D: -4; E: 8.1*; F: -6; G: 0; H: 1
CCOc1cc(NC(=S)NCc2ccco2)c(OCC)cc1NC(=O)C1CC1
  A: .; B: -7; C: .; D: -4; E: 8.0*; F: 5; G: -1; H: 1
O=C(C[C@H]1C=C[C@@H](NC(=O)C2CCOCC2)[C@@H](CO)O1)Nc1ccc(-c2ccccc2)cc1
  A: 4; B: 0; C: 2; D: .; E: .; F: .; G: .; H: .
CCN1CCc2c(OCC(=O)N3CCCCC3)cccc2C1=O
  A: .; B: 9; C: -1; D: -2; E: -4; F: 1; G: .; H: .
CCN1CCc2c(OCC(=O)N3CCC(C)CC3)cccc2C1=O
  A: -14; B: 10; C: 8; D: -4; E: 8.4*; F: 8; G: -6; H: 0
CC=Cc1ccc2n(c1=O)C[C@@H]1[C@@H](CO)[C@H](C(=O)NCc3cccc(F)c3)[C@H]2N1S(C)(=O)=O (mixture of isomers)
  A: 11; B: -7; C: -3; D: .; E: .; F: .; G: .; H: .
CCOC(=O)Cn1nc(NC(=O)c2ccc(C(=O)OC)cc2)cc1C
  A: -27; B: -2; C: -1; D: 0; E: 11*; F: 15; G: 9.4*; H: 2
O=C(c1cnccn1)N1CC(=O)N2[C@H](CO)[C@@H](c3ccc(/C=C/c4ccccc4)cc3)[C@H]2C1
  A: .; B: 0; C: -4; D: .; E: .; F: .; G: .; H: .
CCC(=O)Oc1ccc2oc(=O)cc(C)c2c1
  A: 1; B: 9; C: .; D: 2; E: 13*; F: -3; G: -1; H: 0
O=C(COc1ccccc1Br)NCc1ccco1
  A: -11; B: .; C: .; D: -2; E: 13*; F: 6; G: 0; H: 3
COc1ccccc1OCC(=O)NCc1ccco1
  A: 6; B: .; C: .; D: 6; E: 0; F: -3; G: .; H: .
O=C(NC1CCCCCC1)C1CCN(S(=O)(=O)N2CCC3(CC2)OCCO3)CC1
  A: -27; B: -12; C: -63; D: 1; E: 9.9*; F: -12; G: -2; H: 2
COc1cccc(-c2ccc3c(c2)[C@@H]2[C@@H](CCN2C(=O)c2ccccn2)[C@@H](CO)N3C)c1
  A: -13; B: -4; C: .; D: .; E: .; F: .; G: .; H: .
Cc1ccc2c(Cl)cc(Cl)c(O)c2n1
  A: .; B: 23; C: 1; D: -3; E: 10*; F: -5; G: -16; H: 11*
Oc1c(Cl)cc(Cl)c2cccnc12
  A: -34; B: -3; C: -2; D: 12; E: 2; F: -7; G: .; H: .
COc1ccc(S(=O)(=O)Nc2ccc3c(c2)CC(=O)N([C@H](C)CO)C[C@H](C)[C@@H](CN(C)Cc2ccc(C(F)(F)F)cc2)O3)cc1
  A: 16; B: .; C: 12; D: .; E: .; F: .; G: .; H: .
Cc1ccc(-c2cc3c(N=O)c4ccccc4c-3n[nH]2)cc1
  A: .; B: 9; C: 3; D: -25; E: -6; F: -5; G: .; H: .
O=Nc1c2cc(-c3ccccc3)[nH]nc-2c2ccccc12
  A: .; B: 5; C: -13; D: -20; E: 8.5*; F: -7; G: 9.8*; H: 5.5*
Cc1ccc(S(=O)(=O)Nc2ccc3c(c2)C(=O)N([C@@H](C)CO)C[C@@H](C)[C@@H](CN(C)Cc2ccc4c(c2)OCO4)O3)cc1
  A: 2; B: -11; C: -1; D: .; E: .; F: .; G: .; H: .
CCc1ccc(NC(=O)CNC(=O)Cn2ccc3ccccc3c2=O)cc1
  A: -11; B: -5; C: 3; D: 4; E: 9.1*; F: 7; G: 0; H: 2
CCc1ccc(NC(=O)CCNC(=O)Cn2ccc3ccccc3c2=O)cc1
  A: -10; B: 14; C: 3; D: 15; E: 1; F: -4; G: .; H: .
C[C@H](CO)N1C[C@H](C)[C@H](CN(C)C(=O)CN(C)C)Oc2ncc(C#Cc3ccccc3)cc2C1=O
  A: 4; B: 16; C: 10; D: .; E: .; F: .; G: .; H: .

Only UUG fidelity, SMARCA2 act conf and ERp5 block (two entries from above):
structure,UUG fidelity,SMARCA2 act conf,ERp5 block
O=Nc1c2cc(-c3ccccc3)[nH]nc-2c2ccccc12,.,9.8*,-13
S=c1nccc(-c2ccc(Cl)cc2)[nH]1,-23,-2,5
